Experimental data published in patent publication US11684676B2, “Site-specific antibody-drug conjugates by ADP-ribosyl cyclases” (University of Southern California, priority 2020, dated 2023).

Assays:
[1] = biological target: T1, recombinant HER2 extracellular domain (Homo sapiens, UniProt P04626); experiment: Binding to recombinant HER2-Fc fusion by ELISA; settings: read-out: EC50 for recombinant HER2 (binding affinity)
T1 construct: for different constructs against the recombinant HER2 extracellular domain; purchased R&D Systems 1129-ER-050

[2] = Fluorescence-based CD38 ADP-ribosyl cyclase activity assay of CD38 IgG fusions; type: biochemical, human; settings: NGD+ substrate, cyclic GDP-ribose fluorescence; in contrast to CD38 catalytic domain
From the text: Enzymatic Activities of CD38 and CD38 IgG Fusions.
NGD^+ (Sigma-Aldrich, MO) was used as a substrate to determine ADP-ribosyl cyclase activity of purified CD38 and CD38 C-fusion IgG. Cyclic GDP-ribose (cGDPR) form from CD38 cyclase activity is characterized by fluorescence emission at 410 nm (excitation at 300 nm).

[3] = Pharmacokinetics of CD38 C-fusion IgG in mice; type: in vivo; settings: i.v. 3 mg/kg, CD-1 mice
Description: Pharmacokinetic Studies of CD38 C-Fusion IgG in Mice.
Five female CD-1 mice (6 weeks) were given CD38 C-fusion IgG in DPBS by tail vein intravenous (IV) injection at 3 mg/kg. Tail venipuncture was then performed for blood collection at different time points (0.5, 5, 9, 24, 48, 72, 120, 168 and 264 hours). Plasma concentrations of CD38 C-fusion IgG were determined using two different sandwich ELISAs. Standards used for the ELISA-based quantification were prepared through serial dilutions of 100 μg mL-1 antibody fusion in mouse plasma.
For the first sandwich ELISA, anti-human IgG (H+L) antibody (8 μg mL-1) (Seracare, MA) was coated on ELISA plates overnight at room temperature, followed by blocking with 3% BSA in PBS (pH 7.4) for 2 hours at room temperature. […] Finally, after three times wash with 0.1% PBST, 80 μL of QuantaBlu fluorogenic substrates (ThermoFisher Scientific, MA) were added and allowed for 5-minute incubation prior to measurements of the fluorescence at 425 nm by the Synergy H1 plate reader (BioTek, VT).
For the second sandwich ELISA, the same capture antibody, anti-human IgG (H+L) antibody, was used to capture the fusion antibody in plasma samples. […] Following three times wash with 0.1% PBST, 80 μL of the fluorogenic substrates were added and followed by measurements of fluorescence intensities by the plate reader. […]

[4] = system: HCC1954, MCF7, MDA-MB-231, and MDA-MB-468 cells

Substance | EC50 [1] [nM] | CD38 enzymatic activity [2] | half-life ([3]; ELISA detection by anti-CD38) [h] | half-life ([3]; ELISA detection by anti-kappa light chain) [h] | cytotoxicity [4]
CD38 C-fusion IgG: extracellular domain of CD38 fused to the C-terminus of Herceptin heavy chain with a peptide linker (SEQ ID NO: 18) | 1.02 ± 0.47 | significantly higher activity | 33.14 ± 19.49 | 37.41 ± 16.63 | no cytotoxicity
Herceptin: full-length anti-human HER2 antibody [reference compound] |  |  |  |  | no cytotoxicity
